Experimental data from US20220042033A1, “COMPOSITION AND METHOD FOR CONFERRING AND/OR ENHANCING TOLERANCE AGAINST HERBICIDES BY USING VARIANTS OF PPO” (FarmHannong Co., Ltd., priority 2017, published 2022).

Chains of the proteins cited; added tags and fusions are not shown. Residues count along the entry.
UniProt P56601, whole entry L332T: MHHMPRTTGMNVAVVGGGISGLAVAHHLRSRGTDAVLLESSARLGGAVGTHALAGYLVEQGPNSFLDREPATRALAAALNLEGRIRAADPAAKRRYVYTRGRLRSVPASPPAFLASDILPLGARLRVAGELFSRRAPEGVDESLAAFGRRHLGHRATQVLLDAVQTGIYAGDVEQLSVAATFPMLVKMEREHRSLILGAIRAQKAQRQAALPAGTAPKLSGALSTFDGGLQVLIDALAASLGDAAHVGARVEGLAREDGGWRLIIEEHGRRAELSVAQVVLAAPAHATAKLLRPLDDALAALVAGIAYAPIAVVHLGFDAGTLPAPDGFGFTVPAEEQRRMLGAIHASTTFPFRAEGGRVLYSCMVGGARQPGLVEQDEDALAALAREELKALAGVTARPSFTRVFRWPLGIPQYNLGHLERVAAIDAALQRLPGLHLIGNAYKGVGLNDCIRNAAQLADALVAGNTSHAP
UniProt P56601, whole entry A170C: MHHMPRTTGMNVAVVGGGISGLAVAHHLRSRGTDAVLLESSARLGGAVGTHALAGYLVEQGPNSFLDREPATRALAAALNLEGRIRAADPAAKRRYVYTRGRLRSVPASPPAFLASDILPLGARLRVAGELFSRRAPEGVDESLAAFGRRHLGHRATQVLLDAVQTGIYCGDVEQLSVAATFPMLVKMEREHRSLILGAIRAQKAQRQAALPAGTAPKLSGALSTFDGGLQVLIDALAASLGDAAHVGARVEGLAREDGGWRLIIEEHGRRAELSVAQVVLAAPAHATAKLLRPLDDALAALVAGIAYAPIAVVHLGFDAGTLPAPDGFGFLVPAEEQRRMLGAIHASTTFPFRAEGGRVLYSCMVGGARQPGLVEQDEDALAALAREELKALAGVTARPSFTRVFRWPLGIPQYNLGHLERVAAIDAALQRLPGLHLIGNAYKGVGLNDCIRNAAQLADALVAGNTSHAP
UniProt P56601, whole entry A170L: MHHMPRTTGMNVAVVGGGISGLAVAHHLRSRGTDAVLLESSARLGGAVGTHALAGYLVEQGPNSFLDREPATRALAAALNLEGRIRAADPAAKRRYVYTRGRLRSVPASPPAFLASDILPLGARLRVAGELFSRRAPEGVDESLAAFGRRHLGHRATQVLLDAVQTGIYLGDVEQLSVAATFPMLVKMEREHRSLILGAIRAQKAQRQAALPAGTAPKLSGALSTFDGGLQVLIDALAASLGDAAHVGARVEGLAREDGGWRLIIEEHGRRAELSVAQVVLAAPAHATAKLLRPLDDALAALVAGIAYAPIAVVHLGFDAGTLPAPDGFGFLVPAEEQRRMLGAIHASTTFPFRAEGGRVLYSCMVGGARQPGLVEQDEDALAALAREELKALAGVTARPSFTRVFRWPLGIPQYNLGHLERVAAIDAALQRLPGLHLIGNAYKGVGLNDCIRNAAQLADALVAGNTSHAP
UniProt P56601, whole entry I311M: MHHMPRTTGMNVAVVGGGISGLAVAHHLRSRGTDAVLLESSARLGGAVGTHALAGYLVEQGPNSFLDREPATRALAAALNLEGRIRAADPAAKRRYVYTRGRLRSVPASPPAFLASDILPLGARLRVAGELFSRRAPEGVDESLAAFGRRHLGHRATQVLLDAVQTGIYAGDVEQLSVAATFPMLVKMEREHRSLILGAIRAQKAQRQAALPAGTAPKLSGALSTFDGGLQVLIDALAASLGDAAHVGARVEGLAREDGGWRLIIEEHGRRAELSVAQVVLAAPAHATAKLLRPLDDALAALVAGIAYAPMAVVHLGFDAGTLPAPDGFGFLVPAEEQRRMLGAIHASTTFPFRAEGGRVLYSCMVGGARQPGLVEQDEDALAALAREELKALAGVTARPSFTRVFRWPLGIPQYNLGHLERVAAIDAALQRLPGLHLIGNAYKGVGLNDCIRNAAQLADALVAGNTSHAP
UniProt P56601, whole entry I168C: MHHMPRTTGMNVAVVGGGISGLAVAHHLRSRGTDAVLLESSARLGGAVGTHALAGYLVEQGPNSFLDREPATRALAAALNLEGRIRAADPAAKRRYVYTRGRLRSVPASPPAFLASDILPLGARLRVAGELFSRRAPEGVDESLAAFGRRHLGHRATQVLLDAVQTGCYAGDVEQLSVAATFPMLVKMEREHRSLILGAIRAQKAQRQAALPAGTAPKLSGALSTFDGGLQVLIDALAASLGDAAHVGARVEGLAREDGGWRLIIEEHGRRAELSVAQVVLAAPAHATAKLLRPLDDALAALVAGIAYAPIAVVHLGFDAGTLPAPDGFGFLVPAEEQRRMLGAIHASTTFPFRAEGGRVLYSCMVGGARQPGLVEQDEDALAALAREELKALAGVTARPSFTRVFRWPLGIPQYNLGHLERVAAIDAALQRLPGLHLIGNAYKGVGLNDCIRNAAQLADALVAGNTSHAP
UniProt P56601, whole entry R95A: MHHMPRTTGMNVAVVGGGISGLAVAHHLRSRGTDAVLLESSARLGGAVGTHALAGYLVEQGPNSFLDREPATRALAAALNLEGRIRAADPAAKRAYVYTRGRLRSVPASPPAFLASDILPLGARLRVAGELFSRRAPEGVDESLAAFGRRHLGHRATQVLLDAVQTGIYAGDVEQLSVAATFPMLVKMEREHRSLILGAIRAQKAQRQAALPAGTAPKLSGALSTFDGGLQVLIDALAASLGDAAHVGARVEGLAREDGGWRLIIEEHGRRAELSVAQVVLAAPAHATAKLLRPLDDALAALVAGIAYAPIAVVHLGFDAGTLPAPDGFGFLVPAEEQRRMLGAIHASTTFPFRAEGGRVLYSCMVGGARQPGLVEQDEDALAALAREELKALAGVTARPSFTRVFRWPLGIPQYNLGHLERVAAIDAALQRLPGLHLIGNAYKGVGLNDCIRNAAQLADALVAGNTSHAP
UniProt A0A087SQM0, entry or part of it R140A: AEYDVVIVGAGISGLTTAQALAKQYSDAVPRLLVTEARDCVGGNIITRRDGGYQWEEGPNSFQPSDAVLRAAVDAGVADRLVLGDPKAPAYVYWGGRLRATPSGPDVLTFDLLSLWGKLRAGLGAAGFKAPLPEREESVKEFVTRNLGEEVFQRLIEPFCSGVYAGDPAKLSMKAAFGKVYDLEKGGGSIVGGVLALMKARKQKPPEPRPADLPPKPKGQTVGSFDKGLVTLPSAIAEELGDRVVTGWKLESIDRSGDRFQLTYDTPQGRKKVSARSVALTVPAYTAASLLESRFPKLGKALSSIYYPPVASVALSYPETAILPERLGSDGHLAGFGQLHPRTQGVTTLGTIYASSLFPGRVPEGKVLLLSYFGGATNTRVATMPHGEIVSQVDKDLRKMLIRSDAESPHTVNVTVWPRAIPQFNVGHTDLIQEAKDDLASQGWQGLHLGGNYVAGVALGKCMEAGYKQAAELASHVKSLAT
UniProt A0A087SQM0, entry or part of it A215L: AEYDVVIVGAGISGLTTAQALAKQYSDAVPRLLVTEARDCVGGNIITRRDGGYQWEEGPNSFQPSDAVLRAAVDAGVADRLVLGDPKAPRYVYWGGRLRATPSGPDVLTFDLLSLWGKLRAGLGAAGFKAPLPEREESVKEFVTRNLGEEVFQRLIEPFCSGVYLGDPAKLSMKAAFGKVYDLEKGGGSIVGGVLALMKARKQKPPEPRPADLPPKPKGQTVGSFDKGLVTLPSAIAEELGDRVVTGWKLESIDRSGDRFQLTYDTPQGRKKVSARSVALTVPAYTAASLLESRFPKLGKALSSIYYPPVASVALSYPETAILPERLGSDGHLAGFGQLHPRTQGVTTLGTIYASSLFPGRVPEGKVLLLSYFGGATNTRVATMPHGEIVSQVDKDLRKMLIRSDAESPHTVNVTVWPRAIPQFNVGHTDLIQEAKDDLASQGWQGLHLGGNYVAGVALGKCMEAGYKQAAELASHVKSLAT
UniProt A0A087SQM0, 51-532: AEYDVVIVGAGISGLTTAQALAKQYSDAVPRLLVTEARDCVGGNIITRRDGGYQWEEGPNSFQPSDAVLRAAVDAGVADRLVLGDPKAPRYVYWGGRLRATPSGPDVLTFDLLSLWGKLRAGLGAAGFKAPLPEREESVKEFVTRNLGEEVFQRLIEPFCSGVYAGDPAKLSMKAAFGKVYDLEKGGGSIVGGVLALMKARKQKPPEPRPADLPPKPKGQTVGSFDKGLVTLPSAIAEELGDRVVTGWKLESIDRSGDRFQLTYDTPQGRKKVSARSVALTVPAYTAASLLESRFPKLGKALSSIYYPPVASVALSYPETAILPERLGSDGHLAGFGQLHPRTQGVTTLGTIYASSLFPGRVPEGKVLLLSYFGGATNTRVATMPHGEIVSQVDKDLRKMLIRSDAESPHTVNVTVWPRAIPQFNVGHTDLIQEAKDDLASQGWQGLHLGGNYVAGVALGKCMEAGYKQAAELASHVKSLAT
UniProt A0A087SQM0, entry or part of it V213C: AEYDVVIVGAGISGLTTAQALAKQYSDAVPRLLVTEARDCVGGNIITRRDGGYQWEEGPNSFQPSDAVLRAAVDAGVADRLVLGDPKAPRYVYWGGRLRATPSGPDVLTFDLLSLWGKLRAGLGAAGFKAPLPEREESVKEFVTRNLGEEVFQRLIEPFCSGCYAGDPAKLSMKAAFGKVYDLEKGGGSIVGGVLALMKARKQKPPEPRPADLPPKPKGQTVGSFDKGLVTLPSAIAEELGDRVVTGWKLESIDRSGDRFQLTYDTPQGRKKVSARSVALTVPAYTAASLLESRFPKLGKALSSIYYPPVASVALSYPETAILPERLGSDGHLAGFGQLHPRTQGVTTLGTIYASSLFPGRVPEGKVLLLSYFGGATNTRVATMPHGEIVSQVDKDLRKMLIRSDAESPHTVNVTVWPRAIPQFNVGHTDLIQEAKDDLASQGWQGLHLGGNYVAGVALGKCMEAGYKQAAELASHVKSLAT

Experiments:
[1] = tested on: E. coli BT3(ΔPPO) transformed with Myxococcus xanthus MxPPO (SEQ ID NO: 3) variant A170C; test: Herbicide tolerance test in PPO-deficient E. coli BT3(ΔPPO), growth on plates; type: cell-based; settings: Table 9, light, tiafenacil to 2000 μM, saflufenacil to 200 μM, flumioxazin to 100 μM
[2] = tested on: E. coli BT3(ΔPPO) transformed with Myxococcus xanthus MxPPO wild type, SEQ ID NO: 3; test: as above; type: cell-based; settings: MxPPO WT
Procedure: (§1) Then, the extent of tolerance was evaluated.

[3] = tested on: E. coli BT3(ΔPPO) transformed with Auxenochlorella protothecoides ApPPO1 wild type, SEQ ID NO: 1; test: as above; type: cell-based; settings: ApPPO1 WT, 37° C., 16 to 20 hours
Procedure: as §1

[4] = target: T1, Myxococcus xanthus MxPPO (SEQ ID NO: 3) variant L332T, fused to MBP (Myxococcus xanthus, UniProt P56601, L332T); test: PPO enzyme inhibition assay (IC50), MBP-fused PPO (Table 15); type: biochemical
T1 construct: made in house; host or cells: BL21 CodonPlus(DE3) E. coli

[5] = tested on: E. coli BT3(ΔPPO) transformed with Myxococcus xanthus MxPPO (SEQ ID NO: 3) variant M365I; test: Herbicide tolerance test in PPO-deficient E. coli BT3(ΔPPO), growth on plates; type: cell-based; settings: Table 9, light, tiafenacil to 2000 μM, saflufenacil to 200 μM, flumioxazin to 100 μM
[6] = target: T2, Myxococcus xanthus MxPPO (SEQ ID NO: 3) variant A170C, fused to MBP (Myxococcus xanthus, UniProt P56601, A170C); test: PPO enzyme inhibition assay (IC50), MBP-fused PPO (Table 15); type: biochemical
T2 construct: made in house; host or cells: BL21 CodonPlus(DE3) E. coli

[7] = tested on: E. coli BT3(ΔPPO) transformed with Myxococcus xanthus MxPPO (SEQ ID NO: 3) variant M365V; test: Herbicide tolerance test in PPO-deficient E. coli BT3(ΔPPO), growth on plates; type: cell-based; settings: Table 9, light, tiafenacil to 2000 μM, saflufenacil to 200 μM, flumioxazin to 100 μM
[8] = tested on: E. coli BT3(ΔPPO) transformed with Auxenochlorella protothecoides ApPPO1 (SEQ ID NO: 1) variant Y422I (YI); type: cell-based; settings: Table 7, light, 37° C., 16 to 20 hours, vs wild type at highest herbicide concentration
[9] = tested on: E. coli BT3(ΔPPO) transformed with Myxococcus xanthus MxPPO (SEQ ID NO: 3) variant R95A + M365V; settings: Table 10, light, flumioxazin to 400 μM, sulfentrazone to 1000 μM
[10] = tested on: E. coli BT3(ΔPPO) transformed with Myxococcus xanthus MxPPO (SEQ ID NO: 3) variant A170L; test: Herbicide tolerance test in PPO-deficient E. coli BT3(ΔPPO), growth on plates; type: cell-based; settings: Table 9, light, tiafenacil to 2000 μM, saflufenacil to 200 μM, flumioxazin to 100 μM
[11] = tested on: E. coli BT3(ΔPPO) transformed with Myxococcus xanthus MxPPO (SEQ ID NO: 3) variant I311M; test: as above; type: cell-based; settings: Table 9, light, tiafenacil to 2000 μM, saflufenacil to 200 μM, flumioxazin to 100 μM
[12] = tested on: E. coli BT3(ΔPPO) transformed with Myxococcus xanthus MxPPO (SEQ ID NO: 3) variant M365L; test: as above; type: cell-based; settings: Table 9, light, tiafenacil to 2000 μM, saflufenacil to 200 μM, flumioxazin to 100 μM
[13] = target: T3, Myxococcus xanthus MxPPO (protoporphyrinogen IX oxidase), wild type, SEQ ID NO: 3, fused to MBP (Myxococcus xanthus, UniProt P56601); test: PPO enzyme inhibition assay (IC50), MBP-fused PPO (Table 15); type: biochemical
T3 construct: For encoding the PPO protein (MxPPO); made in house; host or cells: BL21 CodonPlus(DE3) E. coli

[14] = target: T4, Myxococcus xanthus MxPPO (SEQ ID NO: 3) variant A170L, fused to MBP (Myxococcus xanthus, UniProt P56601, A170L); test: biochemical
T4 construct: made in house; host or cells: BL21 CodonPlus(DE3) E. coli

[15] = tested on: E. coli BT3(ΔPPO) transformed with Auxenochlorella protothecoides ApPPO1 (SEQ ID NO: 1) variant A215L (AL); test: Herbicide tolerance test in PPO-deficient E. coli BT3(ΔPPO), growth on plates; type: cell-based; settings: Table 7, light, 37° C., 16 to 20 hours, vs wild type at highest herbicide concentration
[16] = target: T5, Myxococcus xanthus MxPPO (SEQ ID NO: 3) variant I311M, fused to MBP (Myxococcus xanthus, UniProt P56601, I311M); test: biochemical
T5 construct: made in house; host or cells: BL21 CodonPlus(DE3) E. coli

[17] = tested on: E. coli BT3(ΔPPO) transformed with Myxococcus xanthus MxPPO (SEQ ID NO: 3) variant R95A + M365I; settings: Table 10, light, flumioxazin to 400 μM, sulfentrazone to 1000 μM
[18] = target: T6, Myxococcus xanthus MxPPO (SEQ ID NO: 3) variant I168C, fused to MBP (Myxococcus xanthus, UniProt P56601, I168C); test: PPO enzyme inhibition assay (IC50), MBP-fused PPO (Table 15); type: biochemical
T6 construct: For encoding the PPO protein (MxPPO); made in house; host or cells: BL21 CodonPlus(DE3) E. coli

[19] = target: T7, Myxococcus xanthus MxPPO (SEQ ID NO: 3) variant R95A, fused to MBP (Myxococcus xanthus, UniProt P56601, R95A); test: biochemical
T7 construct: For encoding the PPO protein (MxPPO); made in house; host or cells: BL21 CodonPlus(DE3) E. coli

[20] = target: T8, Auxenochlorella protothecoides ApPPO1 (SEQ ID NO: 1) variant R140A, fused to MBP (Auxenochlorella protothecoides, UniProt A0A087SQM0, R140A); test: PPO enzyme inhibition assay (IC50), MBP-fused PPO; type: biochemical
T8 construct: PPO part probably Met + residues 51-532 (transit peptide removed)

[21] = target: T9, Auxenochlorella protothecoides ApPPO1 (SEQ ID NO: 1) variant A215L, fused to MBP (Auxenochlorella protothecoides, UniProt A0A087SQM0, A215L); test: biochemical
T9 construct: PPO part probably Met + residues 51-532 (transit peptide removed)

[22] = target: T10, Auxenochlorella protothecoides ApPPO1 (protoporphyrinogen IX oxidase), wild type, SEQ ID NO: 1, fused to MBP (Auxenochlorella protothecoides, UniProt A0A087SQM0); test: PPO enzyme inhibition assay (IC50), MBP-fused PPO; type: biochemical
T10 construct: PPO part probably Met + residues 51-532 (transit peptide removed)

[23] = target: T11, Auxenochlorella protothecoides ApPPO1 (SEQ ID NO: 1) variant V213C, fused to MBP (Auxenochlorella protothecoides, UniProt A0A087SQM0, V213C); test: biochemical
T11 construct: PPO part probably Met + residues 51-532 (transit peptide removed)

[24] = tested on: E. coli BT3(ΔPPO) transformed with Auxenochlorella protothecoides ApPPO1 (SEQ ID NO: 1) variant V360M (VM); test: Herbicide tolerance test in PPO-deficient E. coli BT3(ΔPPO), growth on plates; type: cell-based; settings: Table 7, light, 37° C., 16 to 20 hours, vs wild type at highest herbicide concentration
[25] = tested on: E. coli BT3(ΔPPO) transformed with Auxenochlorella protothecoides ApPPO1 (SEQ ID NO: 1) variant Y422L (YL); test: as above; type: cell-based; settings: Table 7, light, 37° C., 16 to 20 hours, vs wild type at highest herbicide concentration
[26] = tested on: E. coli BT3(ΔPPO) transformed with Auxenochlorella protothecoides ApPPO1 (SEQ ID NO: 1) variant Y422C (YC); test: as above; type: cell-based; settings: Table 7, light, 37° C., 16 to 20 hours, vs wild type at highest herbicide concentration
[27] = tested on: E. coli BT3(ΔPPO) transformed with Auxenochlorella protothecoides ApPPO1 (SEQ ID NO: 1) variant Y422M (YM); test: as above; type: cell-based; settings: Table 7, light, 37° C., 16 to 20 hours, vs wild type at highest herbicide concentration
[28] = tested on: E. coli BT3(ΔPPO) transformed with Auxenochlorella protothecoides ApPPO1 (SEQ ID NO: 1) variant A215C (AC); test: as above; type: cell-based; settings: Table 7, light, 37° C., 16 to 20 hours, vs wild type at highest herbicide concentration
[29] = tested on: E. coli BT3(ΔPPO) transformed with Auxenochlorella protothecoides ApPPO1 (SEQ ID NO: 1) variant Y422T (YT); test: as above; type: cell-based; settings: Table 7, light, 37° C., 16 to 20 hours, vs wild type at highest herbicide concentration
[30] = Table 10, light, tiafenacil 2000 μM, flumioxazin to 400 μM, sulfentrazone to 1000 μM
[31] = Table 11, dark, flumioxazin to 1000 μM, sulfentrazone to 4000 μM
[32] = Table 7, light, vs wild type at highest herbicide concentration
[33] = Table 8, dark, tiafenacil to 200 μM, flumioxazin to 100 μM, sulfentrazone to 400 μM

Structure (SMILES)	relative herbicide tolerance level [2, 30]	relative herbicide tolerance level [2, 31]	relative herbicide tolerance level [3, 32]	relative herbicide tolerance level [3, 33]	IC50 [4] [µM]	IC50 [6] [µM]	relative herbicide tolerance level [8]	relative herbicide tolerance level [9]	IC50 [13] [µM]	IC50 [14] [µM]	relative herbicide tolerance level [15]	IC50 [16] [µM]	relative herbicide tolerance level [17]	IC50 [18] [µM]	IC50 [19] [µM]	other results
C#CCN1C(=O)COc2cc(F)c(N3C(=O)C4=C(CCCC4)C3=O)cc21 [flumioxazin]	−	−	−	−	0.078	0.546	+++ (100-999 fold higher tolerance)	+ (1-9 fold higher tolerance)	0.024	> 5	++++ (1,000-9,999 fold higher tolerance)	0.058	+ (1-9 fold higher tolerance)	0.08	0.154	relative herbicide tolerance level [1]: + (1-9 fold higher tolerance); relative herbicide tolerance level ([2]; Table 9, light, tiafenacil to 2000 μM, saflufenacil to 200 μM, flumioxazin to 100 μM): −; relative herbicide tolerance level [5]: ++ (10-99 fold higher tolerance); relative herbicide tolerance level [7]: ++ (10-99 fold higher tolerance); relative herbicide tolerance level [10]: ++ (10-99 fold higher tolerance); relative herbicide tolerance level [11]: ++ (10-99 fold higher tolerance); relative herbicide tolerance level [12]: ++ (10-99 fold higher tolerance)
Cc1nn(-c2cc(NS(C)(=O)=O)c(Cl)cc2Cl)c(=O)n1C(F)F [sulfentrazone]	−	−	−	−	4.77	4.57	+ (1-9 fold higher tolerance)	+ (1-9 fold higher tolerance)	0.534	> 10	+++ (100-999 fold higher tolerance)	1.23	+ (1-9 fold higher tolerance)	1.16	> 10	IC50 [20]: 0.973 µM; IC50 [21]: > 10 µM; IC50 [22]: 0.348 µM; IC50 [23]: 0.526 µM; relative herbicide tolerance level [24]: + (1-9 fold higher tolerance); relative herbicide tolerance level [25]: + (1-9 fold higher tolerance); relative herbicide tolerance level [26]: ++ (10-99 fold higher tolerance); relative herbicide tolerance level [27]: + (1-9 fold higher tolerance); relative herbicide tolerance level [28]: + (1-9 fold higher tolerance); relative herbicide tolerance level [29]: + (1-9 fold higher tolerance)
